Some compounds may have been tested in ways that are not shown here.
How the values were obtained:
[1] = Plasma pharmacokinetics after IV co-injection of fentanyl and naltrexone
[2] = Plasma pharmacokinetics after single intraperitoneal co-administration of fentanyl and naltrexone; settings: for AUCinf (mean) / Cmax (mean) / tmax (mean) / t1/2 (mean): plasma
[3] = Plasma pharmacokinetics after 30 minute buccal application of fentanyl formulations; settings: single administration of fentanyl to male beagle dogs, all time points
[4] = IV co-injection, 45 μg/kg each of fentanyl and naltrexone
[5] = Group 1: 125 μg/kg fentanyl, 125 μg/kg naltrexone i.p.
[6] = Group 2: 125 μg/kg fentanyl, 31.3 μg/kg naltrexone i.p.
[7] = Group 3: 125 μg/kg fentanyl, 12.5 μg/kg naltrexone i.p.

| Compound | AUCinf (mean) [2, 5] [ng·h/mL] | Cmax (mean) [2, 5] [ng/mL] | tmax (mean) [2, 5] [min] | AUCinf (mean) [2, 6] [ng·h/mL] | Cmax (mean) [2, 6] [ng/mL] | tmax (mean) [2, 6] [min] | AUCinf (mean) [2, 7] [ng·h/mL] | Cmax (mean) [2, 7] [ng/mL] | tmax (mean) [2, 7] [min] | further results |
| --- | --- | --- | --- | --- | --- | --- | --- | --- | --- | --- |
| CCC(=O)N(c1ccccc1)C1CCN(CCc2ccccc2)CC1 | 3.473 | 14.916 | 10 | 7.923 | 22.176 | 10 | 9.519 | 16.555 | 10 | tmax, Fentanyl ([1]; IV 45 μg of fentanyl and naltrexone, individual dogs c2 CSCAGR, c3 CSDAFI, c4 CSDAJN, c5 CSCACV, c6 CSDAGC, c7 CSCAGD, c8 CSDATI, c9 CSDAGW, c10 CSDAYT): 4.8 min; AUClast (mean) [1, 4]: 11.579 ng·h/mL; Cmax (mean) [1, 4]: 8.828 ng/mL; tmax (mean) [1, 4]: 6 min; tmax (individual rats) ([2]; Group 1, SAN 1-5: fentanyl 125 μg/kg and naltrexone 125 μg/kg i.p.): 10 min; tmax (individual rats) ([2]; Group 2, SAN 6-10: fentanyl 125 μg/kg and naltrexone 31.3 μg/kg i.p.): 10 min; tmax (individual rats) ([2]; Group 3, SAN 11-15: fentanyl 125 μg/kg and naltrexone 12.5 μg/kg i.p.): 10 min; tmax value for all rats ([2]; all three groups, first time point post injection): 10 min |
| norfentanyl | 4.939 | 2.551 | 21 | 5.131 | 1.907 | 47 | 4.094 | 1.809 | 59 | norfentanyl mean plasma concentration [3]: ≤ 600 pg/mL; t1/2 (mean) [2, 5]: 101 min; t1/2 (mean) [2, 6]: 121 min; t1/2 (mean) [2, 7]: 140 min; tmax values, range over all rats ([2]; all three groups, post injection): 10 to 120 min |

— patent US8790689B2, “Tamper resistant transdermal dosage form” (dated 2014)
